# Experimental data taken from PMC10703812, “Understanding the molecular mechanisms of odorant binding and activation of the human OR52 family” (Nature Communications, 2023).
# Several values for one entry are separate records, joined by “and”; a condition that tells them apart may be missing. Equal entries are not always repeated.
# System: OR52cs R265A
# Test: CRE luciferase assay in Hana3A cells, mutant
# Format: cell-based, human
# Details: 100 µM carboxylic acid; Fig.S7a, single experiments
# Protocol: For cAMP assay, CRE luciferase assay, and surface ELISA, the full-length OR52cs construct was cloned into the pcDNA3.1 vector. The Lucy signal sequence and FLAG peptide sequence were added to the N-terminus. Mutant constructs were generated by site-directed mutagenesis. For BRET assay, eYFP was added at the C-terminus of OR52cs with a GGGGS linker. Rluc was added to Gα for resonance partner (after L99 for Gαs, and I100 for Gαolf, respectively, with GGGGS linker back and forth).
# 48 h after infection, cells were treated with odorants and incubated at 37 °C for 4 h. […] All values were divided by the Renilla luciferase activity to normalize the effect of cell confluence. All data were analyzed using GraphPad Prism 9.4.1.
compound,measurement,value
"CCCCCCCCCCCC(=O)O [Dodecanoate, dodecanoate]",relative fold (luciferase activity over DMSO),1.881 fold and 1.569 fold and 1.6524 fold and 1.516 fold
